## Binding of CDR-mutated scFvs to a peptide of the spike HR2 region

The measurements come from Engelhart et al. 2022 (doi:10.1038/s41597-022-01779-4) through the FLAb antibody collection.

All variants were tested on one target, the spike HR2 peptide PDVDLGDISGINAS (SARS-CoV-2).

Ab-91 is the parent antibody, in scFv form: VL, then the linker GGGGSGGGGSGGGGS, then VH. The light chain is unchanged in all variants.
VL: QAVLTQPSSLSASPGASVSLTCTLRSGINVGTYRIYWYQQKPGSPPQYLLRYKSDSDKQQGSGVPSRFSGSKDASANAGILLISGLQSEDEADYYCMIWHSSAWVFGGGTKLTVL
VH: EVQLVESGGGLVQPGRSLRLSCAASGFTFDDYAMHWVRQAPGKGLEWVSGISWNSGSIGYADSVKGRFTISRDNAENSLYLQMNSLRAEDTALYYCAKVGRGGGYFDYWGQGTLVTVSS

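The starting antibody came from a phage panning campaign against this peptide. Variants in AAYL51 differ from the parent at up to three CDR positions; double and triple changes were sampled at random. The assay is AlphaSeq: two haploid yeast populations carry antibody and antigen on their surface. Binding brings cells together so that they mate, and sequencing counts the barcode pairs among the diploids. A regression on co-assayed BCL2-family reference pairs converts the normalised counts of each replicate to an apparent Kd. Mating was done three times.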

Changes read parent residue, position, new residue, counted from the first residue of the VH shown.
Affinities are written as log10 Kd with Kd in nM; a lower number is a better binder.
A pair that was not seen in that replicate is written "ND"; this usually means weak binding, but a binder can also be missed.
Parent in this assay: reference entry 1.86, copy in this library 0.88.
Three control strains display no target. For library AAYL51, 21% of the pairings with them gave a signal, with a median of 4.54 and one signal in twenty below 3.26, so weak values seen in few replicates may be background. The control count says in how many pairings with the empty strains this scFv gave a signal, with their mean in brackets.

changes | replicates, log10 nM | control signals
V64R K65I R101V | 2.97 / 4.06 / 2.35 | 1 of 9 (3.60)
G26I S52A Y108I | ND / 3.79 / 3.16 | 0 of 9
W53G S55R V64P | 2.85 / ND / ND | 0 of 9
F29C | ND / ND / ND | 1 of 9 (3.43)
M34N I51E | ND / ND / ND | 0 of 9
T28L F29G | ND / ND / ND | 0 of 9
I51A G59E D62Y | ND / ND / ND | 2 of 9 (4.04)
G26K A33Q I58P | 5.19 / 4.85 / 6.23 | 5 of 9 (5.16)
S57Y G59R D62N | 4.05 / ND / ND | 0 of 9
Y32A N54Y Y105T | 3.63 / ND / 4.01 | 2 of 9 (4.78)
F27S G102R G103K | ND / ND / ND | 1 of 9 (3.76)
G50R Y60N Y105G | ND / ND / ND | 3 of 9 (4.22)
D31N G100E Y105I | 1.89 / 2.14 / 1.68 | 6 of 9 (4.57)
F29G Y105E Y108I | ND / 4.66 / ND | 1 of 9 (3.99)
F29T M34Q D107W | ND / ND / ND | 0 of 9
D31M W53L G56F | 2.42 / 2.50 / 2.29 | 3 of 9 (4.55)
G26D Y60L Y105F | 4.23 / 4.61 / 4.37 | 1 of 9 (5.31)
Y60A V99S Y108H | 3.50 / ND / ND | 1 of 9 (3.34)
T28H A33T D62P | 4.31 / 5.54 / ND | 7 of 9 (4.64)
H35W S63W G104T | 4.38 / 4.82 / 5.45 | 5 of 9 (5.08)
S57G G59D Y108N | ND / ND / ND | 1 of 9 (5.07)
D30N I51A S63V | ND / ND / ND | 1 of 9 (2.59)
F29P A33G F106I | ND / ND / ND | 0 of 9
F27S S63D G104N | 4.58 / ND / ND | 2 of 9 (4.39)
G26T N54E V64H | ND / ND / ND | 3 of 9 (4.61)
Y32I S57F V64W | ND / ND / 2.83 | 0 of 9
I51Q G100L G103F | ND / ND / ND | 0 of 9
F27V G56L Y108T | ND / ND / ND | 0 of 9
F29V A33T K65F | 4.69 / ND / ND | 3 of 9 (4.61)
G59E S63C R101W | 4.88 / ND / ND | 1 of 9 (4.66)
Y32T V64H G104Y | ND / ND / ND | 2 of 9 (4.95)
I51C S52I G59Q | ND / 4.88 / ND | 1 of 9 (3.08)
G26V I51M S52L | ND / ND / ND | 0 of 9
A33Y M34N | ND / ND / ND | 0 of 9

Excerpt, the final 5 entries:

changes | replicates, log10 nM | control signals
G59E S63C R101W | 4.88 / ND / ND | 1 of 9 (4.66)
Y32T V64H G104Y | ND / ND / ND | 2 of 9 (4.95)
I51C S52I G59Q | ND / 4.88 / ND | 1 of 9 (3.08)
G26V I51M S52L | ND / ND / ND | 0 of 9
A33Y M34N | ND / ND / ND | 0 of 9